# AlphaSeq binding of Ab-14 heavy chain variants to a spike HR2 peptide

Reference: Li et al. 2023, doi:10.1038/s41467-023-39022-2. File: FLAb, binding data.

All variants were tested on one target, the spike HR2 peptide PDVDLGDISGINAS (SARS-CoV-2).

The variants keep the light chain, the linker and the frameworks of Ab-14 (scFv order VH, a 15-residue (Gly4Ser)3 linker, VL).
VH: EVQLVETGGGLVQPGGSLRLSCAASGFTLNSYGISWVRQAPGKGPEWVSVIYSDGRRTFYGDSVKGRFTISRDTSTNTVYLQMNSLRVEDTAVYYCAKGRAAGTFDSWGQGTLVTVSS
VL: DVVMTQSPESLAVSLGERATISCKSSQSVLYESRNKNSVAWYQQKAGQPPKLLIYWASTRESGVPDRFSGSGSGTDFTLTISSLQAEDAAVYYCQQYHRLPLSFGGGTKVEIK

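Designed CDR sequences, proposed from the first random library and measured here. Group labels follow the data file (Ctrl: baseline library sampled from a position-specific scoring matrix, with some repeated check sequences; En: ensemble of fine-tuned language models; GP: Gaussian process model; GPLM: also part of the Gaussian process libraries; HC: hill climbing; Gen: genetic algorithm; Gibbs: Gibbs sampling; a sequence that several methods proposed may carry one label only). AlphaSeq pools MATa yeast showing the antibodies with MATalpha yeast showing the peptide. Binding brings cells together so that they mate, and sequencing counts the barcode pairs among the diploids. The ratio of observed to expected reads was calibrated, replicate by replicate, on BCL2-family standards whose Kd was known from biolayer interferometry. There are six technical replicates.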

Variants are written as CDR1, CDR2 and CDR3 of the heavy chain (limits as in the source). Parent: GFTLNSYGIS, VIYSDGRRTFYGDSVK, GRAAGTFDS. Values are log10 of the apparent Kd in nM; lower means stronger binding. Replicates are averaged; those with no signal do not enter the mean. A pair that was not seen in any replicate is written "not detected"; this usually means weak binding, but a binder can also be missed. In the paper, a design with two or fewer of six values counts as a poor binder.

CDR-H1 | CDR-H2 | CDR-H3 | group | mean, log10 nM | detected
GFSLNNYGIS | VIYSDGRRTFYGDSVK | GNAAGTFDS | GPLM_Gen | 0.03 | 6 of 6
GFNLNSYGIS | VIYSDGRRTFYLDSVK | GRLAGTFDS | Ctrl | 0.91 | 6 of 6
GFNLNSYGIS | VIYSDGRRTFYGDNVK | GEAAGTFDS | GP_Gen | 0.57 | 6 of 6
GFDLDEYGIS | VIYADGKRTAYADSVK | GQVAGTFDV | En_Gen | -0.64 | 6 of 6
GFDLNEYGIS | VIYADGMRTAYSDSVK | GQTAGTFDI | En_Gen | -0.44 | 6 of 6
GFDLDEYGIS | VIYADGMRTAYVDSVK | GNTAGTFDV | En_Gen | -0.38 | 6 of 6
GFSLNSYGIS | VIYSDGRRTFYGDDVK | GMTAGTFDS | GP_Gen | 0.72 | 6 of 6
GFTLNEYGIS | VIYSDGRRTFYTDSVK | GRAAGTFDK | GPLM_HC | 0.62 | 6 of 6
GFSLNSYGIS | VIYSDGRRTFYGDRVK | GQEAGTFDS | GP_Gibbs | 0.01 | 6 of 6
SFSLNSYGIS | VIYSDGRRTFYADSVK | GRAAGTFDS | GPLM_Gen | 1.54 | 6 of 6
GFTLNSYGIS | VIYADGRRTFYGDSVK | GHAAGTFDI | GP_Gibbs | 0.14 | 6 of 6
GFSLDEYGIS | VIYADGVRTQYDDSFK | GTGGFDIEL | En_Gibbs | 0.54 | 1 of 6
GFDLNEYGIS | VIYADGSRTAYADSVK | GNVAGTFDM | En_Gen | -0.43 | 6 of 6
GADLNEYGIS | VIYADGDRKAFQDDVK | GTNAGDFDE | En_Gibbs | 1.82 | 6 of 6
GFDLEEYGIS | VIYADGSRTFYSDSVK | GEAAGTFDM | En_HC | 0.60 | 6 of 6
GFDLNSYGIS | VIYSDGRRTFYGDSVK | GMQAGTFDA | GP_Gibbs | 1.01 | 6 of 6
GFTLNDYGIS | VIYSDGRRTFYSDSVK | GRAAGTFDK | GPLM_HC | -0.14 | 6 of 6
GFSLNSYGIS | VIYSDGRRTFYSDSVK | GNVAGTFDS | GPLM_Gibbs | -0.11 | 6 of 6
GFDLNEMGIS | VIYADGDRKAYQDAVK | GDVSGDFDE | En_Gibbs | 2.31 | 1 of 6
GFDLDEYGIS | VIYADGRRTAYADSVK | GEVAGTFDI | En_Gen | 0.08 | 6 of 6
GFDLNSYGIS | VIYSDGRRTFYGDRVK | GREAGTFDS | GP_Gen | 0.64 | 6 of 6
GFKLNEYGIS | VIYADGQRKAYTDSFK | GTQAGMVFE | En_Gibbs | not detected | 0 of 6
GFDLNEYGIS | VIYADGSRTAYADSVK | GEQAGTFDV | En_Gen | -0.93 | 6 of 6
GFRLNSYGIS | VIYSDGRRTFYGDSVK | GRASGTFDS | Ctrl | not detected | 0 of 6
GGDIQDYGIS | VIYADGQRAAYADEVK | GNIGGIFST | En_Gibbs | not detected | 0 of 6
GFTLNSYGIS | VIYSDGRRTFYGDSVK | HRAAGTFDK | Ctrl | 3.55 | 1 of 6
GFSLNEYGIS | VIYSDGRRTFYGDHVK | GRTAGTFDS | GP_Gen | 0.33 | 5 of 6
GFDLNEYGIS | VIYADGMRTFYADDVK | GNQAGTFDL | En_Gen | -0.27 | 6 of 6
GFSLDEYGIS | VIYADGMRQSYCENVK | GEHGCTFGL | En_Gibbs | not detected | 0 of 6
GKSLEDYGIS | VIYADGQRTSYAETVK | GNNGGVFIY | En_Gibbs | not detected | 0 of 6
GFSLNEYGIS | VIYSDGRRTFYVDSVK | GPAAGTFDR | GP_HC | 0.66 | 1 of 6
GFDISEYGIS | VIYADGKKTQFVNTVK | GELGGTFNV | En_Gibbs | 2.23 | 4 of 6
GFDLNSYGIS | VIYSDGRRTAYGDSVK | GRAYGTFDS | Ctrl | not detected | 0 of 6
GFDLNEYGIS | VIYADGRRTAYTDSVK | GTNAGTFDI | En_HC | -0.52 | 6 of 6
GFDLNEYGIS | VIYADGMRTVYADSVK | GNQAGTFDL | En_Gen | 0.98 | 6 of 6
GFQLNEYGIS | VIYSDGRRTFYGDSVK | GRTAGTFDL | GP_Gen | -0.33 | 6 of 6
GFTLNSYGIS | VIYSDGRRTFYIDSVK | GKIAGTFDS | GPLM_Gibbs | 1.96 | 5 of 6
GFSLNSYGIS | VIYSDGRRTFYGDSVK | GNEAGTFDT | GP_Gen | -0.27 | 6 of 6
GFDLNEYGIS | VIYADGMRTAYIDSVK | GEAAGTFDS | En_HC | 0.62 | 4 of 6
GFDLNEYGIS | VIYADGQRKAYADDVK | GENAGTFDV | En_Gen | 0.55 | 6 of 6
GFNLDEYGIS | VIYADGRRTFYQDSVK | GEVAGTFDI | En_HC | -0.95 | 6 of 6
GFHLNSYGIS | VIYSDGRRTFYGDSVK | GRAAGTFES | Ctrl | not detected | 0 of 6
GFNLNSYGIS | VIYSDGQRTFYGDSVK | GRTAGTFDS | GPLM_Gibbs | 0.53 | 6 of 6
GFDINEYGIS | VIYADGMRRAYSQSVK | GHGEDLSLD | En_Gibbs | 2.02 | 2 of 6
GFTLNSYGSS | VIYSDGRRTFYGDSVK | GRVAGTFDS | Ctrl | 0.37 | 6 of 6

For reference, 3 entries of the list once more:

{"CDR-H1": "GFDLDEYGIS", "CDR-H2": "VIYADGMRTAYVDSVK", "CDR-H3": "GNTAGTFDV", "group": "En_Gen", "mean, log10 nM": "-0.38", "detected": "6 of 6"}
{"CDR-H1": "GGDIQDYGIS", "CDR-H2": "VIYADGQRAAYADEVK", "CDR-H3": "GNIGGIFST", "group": "En_Gibbs", "mean, log10 nM": "not detected", "detected": "0 of 6"}
{"CDR-H1": "GFDLNEYGIS", "CDR-H2": "VIYADGQRKAYADDVK", "CDR-H3": "GENAGTFDV", "group": "En_Gen", "mean, log10 nM": "0.55", "detected": "6 of 6"}

As a blank, each scFv also met three strains without target: over all heavy chain designs, 1% of these pairings were detected, typically at 2.08 and seldom below 0.84. A sequence measured in both rounds can read differently, since the two assays cover different ranges.